Assay results as given in patent publication US10130604B2, “Composition and method for treating neurodegenerative disease” (priority 2012, dated 2018).

Key:
DJ-1 [1] = settings: HEK293 reporter cells, 48 hr treatment
DJ-1 [2] = test system: DJ-1
α-synuclein [3] = settings: C57BL/6 mice, drinking water, two weeks
DJ-1 [4] = settings: vs age-matched mice without PB
human α-synuclein = settings: LB509 immunostaining
α-synuclein [5] = test system: α-synuclein
DJ-1 [6] = test system: DJ-1; remark: listed apart in the source
DJ-1 [7] = settings: N27 cells, two days treatment, Western blot

**Q.** How did the DJ-1 protein levels (DJ-1 [1]) turn out when `O=C([O-])CCCc1ccccc1.[Na+]` [sodium phenylbutyrate] was run?
**A.** increased

**Q.** What about the “DJ-1 gene expression, combination with A53T” value (DJ-1 [2]; A53T mutant human alpha-synuclein overexpression, vs A53T alone) of the same compound?
**A.** even greater increase

**Q.** What about the “increase in DJ-1 mRNA” value (DJ-1 [2]; N27 dopamine neurons, phenylbutyrate alone) of the same compound?
**A.** 50 fold

**Q.** And the “increase in DJ-1 mRNA, combination with H2O2” value (DJ-1 [2]; pretreated 48 hours, then H2O2)?
**A.** 256 fold

**Q.** What about the “α-synuclein concentrations in brain” value (α-synuclein [3]) of the same compound?
**A.** not changed

**Q.** What about the “brain DJ-1 protein levels, young and old transgenic mice” value (DJ-1 [4]) of the same compound?
**A.** significantly increased

**Q.** And the “number of neurons with Lewy body-like inclusions, young mice” value (human α-synuclein)?
**A.** little effect

**Q.** What about the “number of neurons with Lewy body-like inclusions, old mice” value (human α-synuclein; vs vehicle) of the same compound?
**A.** greatly reduced the number of neurons with Lewy body-like inclusions

**Q.** And the “α-synuclein oligomer accumulation in brain, 10-month old Young transgenic animals” value (α-synuclein [5]; Western blot)?
**A.** minimal

**Q.** What about the “α-synuclein oligomer formation in brain, 15-month old transgenic mouse” value (α-synuclein [5]; cortex, striatum and hippocampus, Western blot) of the same compound?
**A.** dramatically reduced oligomer formation

**Q.** What about the “ratio of α-synuclein oligomer to monomer, old transgenic mice” value (α-synuclein [5]; vs Old w/o PB) of the same compound?
**A.** dramatically reduced

**Q.** And the “brain DJ-1 levels” value (DJ-1 [6]; C57BL/6 mice, drinking water, two weeks, vs control)?
**A.** significantly increased DJ-1 levels

**Q.** What about the “time course of brain DJ-1 during chronic administration” value (DJ-1 [6]; drinking water for 1, 2 and 3 months, data not shown) of the same compound?
**A.** reached plateau values after two weeks

**Q.** What about the “increase in brain DJ-1 levels” value (DJ-1 [6]; mice) of the same compound?
**A.** 260%

**Q.** What about the DJ-1 protein levels (DJ-1 [7]) of the same compound?
**A.** 300 % of control

Where two headings read alike, the source gives them in different places.
